The results in this text go back to patent US12290596B2.

In the experiment the test system is remifentanil-induced suppression of CO2-induced increases in minute ventilation.

In the case of `C=C1CC[C@@]2(O)[C@H]3Cc4ccc(O)c5c4[C@@]2(CCN3CC2CC2)[C@H]1O5`, the “LS Mean VE Change” value (5 minutes post dose, sensitivity analysis excluding outliers, n 48) came to 5.052 L/min. Moreover, the “LS mean change in minute ventilation” value (Part 2, 5 minutes, sensitivity analysis) is reported as 5.052 L/min.
